Consider one substance from publication PMC5715147, “Albumin/vaccine nanocomplexes that assemble in vivo for combination cancer immunotherapy” (Nature Communications, 2017).

The subject of the data set is IN LN B220+ B cells, CD11c+ DCs, and F4/80+ macrophages. As to the kind of experiment: AlbiVax uptake in LN-residing APCs by flow cytometry. The conditions noted are these: premixed MSA-FITC and AlbiCpG-Alexa555 s.c. A general note: A flow cytometer gives signals particle by particle.

Consider “MSA-FITC: FITC-labeled mouse serum albumin”, for which the “MSA+ B cells, day 1” value worked out at 7%.
